Antibody variant affinities, Ab-14 light chain, assay 1

All variants were tested on one target, the spike HR2 peptide PDVDLGDISGINAS (SARS-CoV-2).

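The starting antibody came from a phage panning campaign against this peptide. In library AAYL50, one, two or three CDR residues were substituted; doubles and triples were drawn at random. AlphaSeq pools MATa yeast showing the antibodies with MATalpha yeast showing the peptide. After mating in shaken culture at 30 °C for 16 h, diploids were selected and their barcode pairs sequenced. The ratio of observed to expected reads was calibrated, replicate by replicate, on BCL2-family standards whose Kd was known from biolayer interferometry. Each pool was mated in three replicate cultures.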

Each scFv is VH, three GGGGS repeats, VL, as in the parent Ab-14, and differs from it in the CDRs of the light chain only.
VH: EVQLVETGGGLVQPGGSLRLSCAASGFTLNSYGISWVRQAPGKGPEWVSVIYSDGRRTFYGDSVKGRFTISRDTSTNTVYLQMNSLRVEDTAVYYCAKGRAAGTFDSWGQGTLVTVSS
VL: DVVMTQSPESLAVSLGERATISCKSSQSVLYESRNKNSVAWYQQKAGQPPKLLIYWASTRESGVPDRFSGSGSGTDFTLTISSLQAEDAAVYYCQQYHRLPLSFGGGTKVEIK

Each variant is given by its three light chain CDRs, as the data file delimits them; those of the parent are KSSQSVLYESRNKNSVA, WASTRES, QQYHRLPLS. Numbers give log10(Kd / nM), so 0 is 1 nM and 3 is 1 µM. Smaller is tighter. A pair that was not seen in that replicate is written "nd"; this usually means weak binding, but a binder can also be missed. Three control strains display no target. For library AAYL50, 18% of the pairings with them gave a signal, with a median of 4.19 and one signal in twenty below 2.99, so weak values seen in few replicates may be background. For each scFv, signals with the empty controls are counted beside the result, with their mean in brackets.

{"CDR-L1": "KCSQSVLYESRNKNSVA", "CDR-L2": "WASTRNS", "CDR-L3": "QQYDRLPLS", "log10 Kd, replicates": "nd nd nd", "empty controls": "0 of 9"}
{"CDR-L1": "KSKQSVLYESRNKNSVA", "CDR-L2": "WASTRES", "CDR-L3": "QKYYRLPLS", "log10 Kd, replicates": "1.85 2.17 2.26", "empty controls": "2 of 9 (3.66)"}
{"CDR-L1": "KSSQSVLYESRNSNSVA", "CDR-L2": "WMSTREM", "CDR-L3": "QQYHRLPLS", "log10 Kd, replicates": "3.15 2.52 3.29", "empty controls": "2 of 9 (3.93)"}
{"CDR-L1": "KSSYSVLYESRNKNSVA", "CDR-L2": "WASQRES", "CDR-L3": "QQYSRLPLS", "log10 Kd, replicates": "0.71 0.98 0.85", "empty controls": "4 of 9 (4.26)"}
{"CDR-L1": "KSSQSVLYESRNKNSVA", "CDR-L2": "WASQRES", "CDR-L3": "LQYHRLPLS", "log10 Kd, replicates": "4.20 nd nd", "empty controls": "2 of 9 (5.30)"}
{"CDR-L1": "KSSQSVLYESINKNSVA", "CDR-L2": "YASTRES", "CDR-L3": "QQYHMLPLS", "log10 Kd, replicates": "1.54 1.41 1.42", "empty controls": "2 of 9 (4.51)"}
{"CDR-L1": "KSSQSVLCESRNKNSVK", "CDR-L2": "WASTRES", "CDR-L3": "QQYHRLPLS", "log10 Kd, replicates": "5.56 3.80 4.76", "empty controls": "7 of 9 (4.88)"}
{"CDR-L1": "KSSQSVCYESRNKNSVA", "CDR-L2": "WASTRDS", "CDR-L3": "QQYHQLPLS", "log10 Kd, replicates": "0.94 1.11 1.18", "empty controls": "2 of 9 (3.37)"}
{"CDR-L1": "KSWQAVLYESRVKNSVA", "CDR-L2": "WASTRES", "CDR-L3": "QQYHRLPLS", "log10 Kd, replicates": "4.35 3.43 3.88", "empty controls": "2 of 9 (4.84)"}
{"CDR-L1": "KSGQSVYYESRNKNSVA", "CDR-L2": "WASTRES", "CDR-L3": "QFYHRLPLS", "log10 Kd, replicates": "3.23 3.08 4.47", "empty controls": "2 of 9 (4.98)"}
{"CDR-L1": "KSSQSVLYNSRNKNHGA", "CDR-L2": "WASTRES", "CDR-L3": "QQYHRLPLS", "log10 Kd, replicates": "4.54 nd 4.35", "empty controls": "5 of 9 (4.45)"}
{"CDR-L1": "KSSQSVLYESRGKNSVH", "CDR-L2": "WASTRES", "CDR-L3": "QQYHVLPLS", "log10 Kd, replicates": "nd nd nd", "empty controls": "1 of 9 (3.94)"}
{"CDR-L1": "KQSQSVLYESRNKNSLA", "CDR-L2": "WASTRES", "CDR-L3": "QQYHRAPLS", "log10 Kd, replicates": "nd 3.03 nd", "empty controls": "1 of 9 (4.66)"}
{"CDR-L1": "KSSQRVLYESENKNSVA", "CDR-L2": "WASKRES", "CDR-L3": "QQYHRLPLS", "log10 Kd, replicates": "2.93 3.39 3.65", "empty controls": "1 of 9 (4.34)"}
{"CDR-L1": "KSSQSVLYESRNKNSVA", "CDR-L2": "CARTRES", "CDR-L3": "QKYHRLPLS", "log10 Kd, replicates": "nd 3.81 nd", "empty controls": "1 of 9 (2.30)"}
{"CDR-L1": "KSSQSVLYQSRNKNSVA", "CDR-L2": "WASTRES", "CDR-L3": "QQYHRLPLS", "log10 Kd, replicates": "1.07 1.21 1.25", "empty controls": "1 of 9 (3.81)"}
{"CDR-L1": "KSHQCVLYESRNKNSHA", "CDR-L2": "WASTRES", "CDR-L3": "QQYHRLPLS", "log10 Kd, replicates": "nd 3.23 nd", "empty controls": "3 of 9 (3.54)"}
{"CDR-L1": "KSSQSVQYESRNKNSVW", "CDR-L2": "WASTRES", "CDR-L3": "QQYHRQPLS", "log10 Kd, replicates": "nd nd nd", "empty controls": "0 of 9"}
{"CDR-L1": "KSSQSIYYEERNKNSVA", "CDR-L2": "WASTRES", "CDR-L3": "QQYHRLPLS", "log10 Kd, replicates": "1.04 1.25 1.15", "empty controls": "2 of 9 (4.43)"}
{"CDR-L1": "KSSQSVLYESRNKNSVA", "CDR-L2": "WASTRES", "CDR-L3": "SVYHRLPLS", "log10 Kd, replicates": "nd nd nd", "empty controls": "1 of 9 (2.57)"}
{"CDR-L1": "KSQQSVLYESRNKNSVA", "CDR-L2": "WASTEES", "CDR-L3": "QQYHRSPLS", "log10 Kd, replicates": "4.89 3.90 nd", "empty controls": "4 of 9 (4.28)"}
{"CDR-L1": "KSSQSVLYESRNKNSVK", "CDR-L2": "WASTRSS", "CDR-L3": "QQYHRLPLW", "log10 Kd, replicates": "nd 3.40 nd", "empty controls": "1 of 9 (4.63)"}
{"CDR-L1": "KSSQSVLYESRNKNLVA", "CDR-L2": "WASTRQP", "CDR-L3": "QQYHRLPLS", "log10 Kd, replicates": "5.46 nd nd", "empty controls": "2 of 9 (4.11)"}

In this assay the parent's reference entry averaged 0.65; its copy inside this library read 1.68.

Source: Engelhart et al. 2022 (doi:10.1038/s41597-022-01779-4), MIT Lincoln Laboratory and A-Alpha Bio; data file from the FLAb repository.